Source: PubChem BioAssay AID461 (SRMLSC, 2006)
The list shows a part of the results, in another mix than the full data. Calls of active or inactive are those of the source.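 How the source made its calls: active means Her2 level under about 52% in both replicate screens, with viability over 70% of control (limit read from the data); inconclusive means Her2 under the limit in one screen only, or viability under 70%; inactive means Her2 level above the set limit.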

Sequences of proteins named here, by UniProt entry; tags and fusion partners are left off.
UniProt P04626, whole entry: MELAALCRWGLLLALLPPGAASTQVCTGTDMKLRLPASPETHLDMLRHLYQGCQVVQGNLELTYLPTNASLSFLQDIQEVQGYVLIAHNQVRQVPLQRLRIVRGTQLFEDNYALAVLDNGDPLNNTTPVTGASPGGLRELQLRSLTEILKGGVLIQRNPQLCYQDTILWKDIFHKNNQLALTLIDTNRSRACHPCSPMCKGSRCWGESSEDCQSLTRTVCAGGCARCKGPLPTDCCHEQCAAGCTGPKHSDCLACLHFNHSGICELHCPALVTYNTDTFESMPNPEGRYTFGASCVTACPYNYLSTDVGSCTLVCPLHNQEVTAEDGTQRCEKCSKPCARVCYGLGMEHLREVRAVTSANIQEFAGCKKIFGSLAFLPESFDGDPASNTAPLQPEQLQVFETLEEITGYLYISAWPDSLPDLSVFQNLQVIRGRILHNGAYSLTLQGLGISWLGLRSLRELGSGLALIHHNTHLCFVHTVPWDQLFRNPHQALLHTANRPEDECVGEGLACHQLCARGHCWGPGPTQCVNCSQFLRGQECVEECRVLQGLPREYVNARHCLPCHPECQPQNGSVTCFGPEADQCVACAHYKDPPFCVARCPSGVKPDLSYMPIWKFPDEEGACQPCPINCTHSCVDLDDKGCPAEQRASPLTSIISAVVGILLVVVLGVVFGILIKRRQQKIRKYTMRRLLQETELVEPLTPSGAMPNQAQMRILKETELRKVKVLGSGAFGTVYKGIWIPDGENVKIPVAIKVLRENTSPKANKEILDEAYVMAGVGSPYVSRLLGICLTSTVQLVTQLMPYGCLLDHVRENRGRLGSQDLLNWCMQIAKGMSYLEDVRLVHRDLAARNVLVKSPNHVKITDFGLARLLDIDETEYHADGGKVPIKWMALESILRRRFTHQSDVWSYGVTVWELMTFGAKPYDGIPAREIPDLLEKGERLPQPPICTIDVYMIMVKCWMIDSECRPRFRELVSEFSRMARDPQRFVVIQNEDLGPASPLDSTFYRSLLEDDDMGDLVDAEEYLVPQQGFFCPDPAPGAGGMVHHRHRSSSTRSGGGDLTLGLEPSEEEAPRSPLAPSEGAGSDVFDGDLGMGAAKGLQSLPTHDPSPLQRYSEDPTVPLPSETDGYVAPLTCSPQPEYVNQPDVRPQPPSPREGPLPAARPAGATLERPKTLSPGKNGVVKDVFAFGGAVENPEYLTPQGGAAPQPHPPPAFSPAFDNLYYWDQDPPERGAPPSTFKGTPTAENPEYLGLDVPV

target: Receptor tyrosine-protein kinase erbB-2 (Homo sapiens) (UniProt P04626); experiment: reducers of endogenous Her2 protein level, primary screen, SKBR3 breast tumor cells, AlphaScreen, ATP viability (AID 461); conditions: 18-24 h, at 10 µM, active compounds read low;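 further: lower value means less Her2 protein in the cells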

Structure (SMILES)	Her2 level
CP(=O)(Nc1ccccn1)Oc1ccccc1 (stereo not given)	inactive: 104%
CP(=O)(Nc1ccc2c(c1)OCCO2)Oc1ccccc1 (stereo not given)	inactive: 120%
CN(C)CCOC(=O)C(O)(c1ccccc1)C1CCCCC1 (stereo not given)	inactive: 104%
Cc1ccc(C)c(NP(C)(=O)Oc2ccccc2)c1 (stereo not given)	inactive: 103%
CP(=S)(Nn1cnnc1)Oc1ccccc1 (stereo not given)	inactive: 121%
